These are literature values, as cited in article PMC9459323 (Cancer Science, 2022).

By IC50 is commonly meant the concentration that gives 50% inhibition.

The data set concerns the target LDHA (Homo sapiens, UniProt P00338). The note with it: read-out: LDHA IC50.

As for `NC(=O)C(=O)O` [Oxamate], the IC50 was around 800 µM.
